This is an account of results in patent publication US20170058314A1, “NOVEL METHODOLOGY FOR IDENTIFYING ANTI-PERSISTER ACTIVITY AND ANTIMICROBIAL SUSCEPTIBILITY FOR BORRELIA BURGDORFERI AND OTHER BACTERIA” (priority 2014, published 2017).

The subject of data set [1] is stationary phase B. burgdorferi persisters (strain B31). Briefly: SYBR Green I/PI viability assay (plate reader), FDA-approved drug library screen. The following applies: 50 μM, 7-day old stationary phase cells treated for 7 days.
Data set [2] has the same test system. Briefly: epifluorescence microscope counting after SYBR Green I/PI staining, FDA drug screen. The following applies: 50 μM, 7-day old stationary phase cells treated for 7 days.

As for Collistin, the “Residual viable cells (regression equation, SYBR Green I/PI assay)” value in data set [1] is given as 54%. The “Residual viable cells (epifluorescence microscope counting)” value in data set [2] was 50%.
